Chains of the proteins cited; added tags and fusions are not shown.
UniProt P55055, whole entry: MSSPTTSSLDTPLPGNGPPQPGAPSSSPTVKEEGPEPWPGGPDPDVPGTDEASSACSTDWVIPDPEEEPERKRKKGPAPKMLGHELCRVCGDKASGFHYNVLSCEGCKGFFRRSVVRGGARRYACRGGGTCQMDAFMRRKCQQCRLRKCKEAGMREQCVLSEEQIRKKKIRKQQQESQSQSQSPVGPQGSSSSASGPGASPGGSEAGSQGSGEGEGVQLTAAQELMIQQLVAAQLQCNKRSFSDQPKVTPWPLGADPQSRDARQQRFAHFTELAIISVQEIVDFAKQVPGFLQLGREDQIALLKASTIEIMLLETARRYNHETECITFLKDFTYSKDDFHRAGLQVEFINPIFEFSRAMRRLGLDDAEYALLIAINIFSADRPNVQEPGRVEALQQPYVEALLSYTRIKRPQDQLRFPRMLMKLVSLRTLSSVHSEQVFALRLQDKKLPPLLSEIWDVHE

In patent publication US12415810B2, “2'-isopropyl-spiro (3,3'-pyrrolidine oxindole) liver X receptor regulator, preparation method therefor, and use thereof” (SHENZHEN CELL INSPIRE PHARMACEUTICAL DEVELOPMENT CO., LTD., priority 2019, dated 2025):

Biological target: T1, LXRβ (Homo sapiens, UniProt P55055)
T1 construct: expressed in transfected cells; host or cells: HEK293T
Test: Liver X receptor activity test, dual-luciferase reporter gene in HEK293T cells (pSG5/hLXRβ + hRXRα)
Format: cell-based
Conditions: HEK-293T, 20 h, read-out: LXRβ % Inverse agonist effect
Procedure: (1) Cell culture: human embryonic kidney cells (HEK293T cells) were cultured in DMEM (high glucose) medium containing 10% fetal bovine serum and 1% penicillin-streptomycin under conditions of 37° C. and 5% CO2.
(2) Transfection: HEK293T cells were seeded in a 96-well plate with a cell density of 2×10^4 cells/well. After 24 hours, the cells were transfected according to instructions of Lipofectamine™ 3000 reagent. The specific steps of transfection were as follows: • (1) adding 15 μL of L3000 reagent to 500 μL of DMEM (high sugar) medium, and vortex oscillating for 2 seconds; • (2) mixing 6.5 μg of pGL3/(DR-4)-c-fos-FF-luc plasmid, 0.13 μg of pCMV/Renilla-luc plasmid, 1.3 μg of pSG5/hLXRα (or pSG5/hLXRβ plasmid), 1.3 μg of pSG5/hRXRα plasmid, and 19 μL of P3000 reagent in 500 μL of DMEM (high sugar) medium; • (3) adding the plasmid mixture to a liposome mixture and standing by at room temperature for 20 minutes; and • (4) adding 10 μL of liposome-DNA solution to each well of the 96-well plate, and gently shaking the 96-well plate to mix well.
(3) Drug intervention: after 5 hours of transfection, the compounds to be tested were added, and the plate was placed in an incubator to continue culturing for 20 hours. […]
Result processing: the results were analyzed using Renilla luciferase activity to correct the firefly luciferase activity.

CCOC(=O)c1ccc(CN(Cc2ccc(-c3cccc(S(C)(=O)=O)c3)cc2)S(=O)(=O)c2c(C)cc(C)cc2C)o1 [SR9238, reference compound]
Emax: 78%
